Test results taken from patent US7371365B2, “Methods for detecting parenchymal plaques in vivo” (Mayo Foundation for Medical Education and Research, priority 2000, dated 2008).

Experiments:
BBB [1] = conditions: cited from earlier work
BBB [2] = assay: PS and Vp at the BBB, IV bolus injection in non-transgenic mice; conditions: for PS: Permeability coefficient-surface area product / Vp: Residual brain region blood volume: x ± SEM; for PS: Permeability coefficient-surface area product: 125I derivatives over 15 min, corrected for Vp; for Vp: Residual brain region blood volume: 131I derivatives given 15 sec prior to end
Procedure: PS and Vp Determination in Mice. […] Blood was sampled from the femoral artery at several intervals during the next 15 minutes. Whole blood was sampled directly, using heparinized micro-hematocrit capillary tubes and TCA extracted. The supernatant was separated from the pellet and both were counted in a gamma counter. The radioactivity in the pellet was expressed as a percentage of the total radioactivity found in both the pellet and supernatant. An aliquot of the peptide labeled with ^131I was then injected into the femoral vein 15 seconds prior to sacrifice of the animal to serve as a measure of residual plasma volume (Vp; μl/g). After collection of the final blood sample, the anesthetized animal was sacrificed. […] The permeability coefficient x surface area products (PS; 10^−6 ml/g/s) were then calculated using the Vp as a measure of residual plasma volume based on equations that have been discussed in detail elsewhere (Poduslo and Curran, supra (1996a); Poduslo and Curran, supra (1996b); Wengenack, et al., supra (1997); Poduslo, et al., supra (1998); Poduslo, et al., supra (2000); Poduslo, et al., supra (2001). Statistical evaluations of PS and Vp were performed using ANOVA followed by Bonferroni multiple comparisons.

Q: With insulin as the substance, how does the “PS value in rat cortex” value (BBB [1]) read?
A: Its value is 1.578e-05 mL/g/s.

Q: With “putrescine-gadolinium-amyloid-β peptide [PUT-Gd-Aβ]” as the substance, how does the “RI of PS: relative increase versus Aβ” value (BBB [2]; Brain Stem) read?
A: The value was 2.0.

Q: And the “RI of Vp: relative increase versus Aβ” value (BBB [2]; Brain Stem)?
A: The value was 3.7.

Q: What about the “PS: Permeability coefficient-surface area product” value (BBB [2]; Brain Stem) of the same substance?
A: The value was 125.8 ± 8.9 ml/g/s × 10^−6.

Q: And the “Vp: Residual brain region blood volume” value (BBB [2]; Brain Stem)?
A: Its value is 63.5 ± 3.6 µL/g.

Q: And the “RI of PS: relative increase versus Aβ” value (BBB [2]; Caudate-Putamen)?
A: Its value is 1.5.

Q: What about the “RI of Vp: relative increase versus Aβ” value (BBB [2]; Caudate-Putamen) of the same substance?
A: The value was 4.4.

Q: What about the “PS: Permeability coefficient-surface area product” value (BBB [2]; Caudate-Putamen) of the same substance?
A: Its value is 60.0 ± 9.0 ml/g/s × 10^−6.

Q: What about the “Vp: Residual brain region blood volume” value (BBB [2]; Caudate-Putamen) of the same substance?
A: Its value is 43.4 ± 2.2 µL/g.

Q: What about the “RI of PS: relative increase versus Aβ” value (BBB [2]; Cerebellum) of the same substance?
A: The value was 1.7.

Q: What about the “RI of Vp: relative increase versus Aβ” value (BBB [2]; Cerebellum) of the same substance?
A: The value was 3.5.

Q: And the “PS: Permeability coefficient-surface area product” value (BBB [2]; Cerebellum)?
A: The value was 113.3 ± 12.5 ml/g/s × 10^−6.

Q: And the “Vp: Residual brain region blood volume” value (BBB [2]; Cerebellum)?
A: The value was 73.4 ± 3.7 µL/g.

Q: And the “RI of PS: relative increase versus Aβ” value (BBB [2]; Cortex)?
A: Its value is 1.7.

Q: What about the “RI of Vp: relative increase versus Aβ” value (BBB [2]; Cortex) of the same substance?
A: The value was 4.1.

Q: And the “PS: Permeability coefficient-surface area product” value (BBB [2]; Cortex)?
A: The value was 91.3 ± 9.5 ml/g/s × 10^−6.

Q: And the “Vp: Residual brain region blood volume” value (BBB [2]; Cortex)?
A: Its value is 58.2 ± 2.7 µL/g.

Q: And the “RI of PS: relative increase versus Aβ” value (BBB [2]; Hippocampus)?
A: Its value is 1.7.

Q: And the “RI of Vp: relative increase versus Aβ” value (BBB [2]; Hippocampus)?
A: Its value is 3.3.

Q: What about the “PS: Permeability coefficient-surface area product” value (BBB [2]; Hippocampus) of the same substance?
A: The value was 84.2 ± 6.8 ml/g/s × 10^−6.

Q: What about the “Vp: Residual brain region blood volume” value (BBB [2]; Hippocampus) of the same substance?
A: The value was 52.2 ± 3.3 µL/g.

Q: What about the “RI of PS: relative increase versus Aβ” value (BBB [2]; Thalamus) of the same substance?
A: The value was 1.6.

Q: What about the “RI of Vp: relative increase versus Aβ” value (BBB [2]; Thalamus) of the same substance?
A: The value was 4.5.

Q: What about the “PS: Permeability coefficient-surface area product” value (BBB [2]; Thalamus) of the same substance?
A: The value was 83.1 ± 12.5 ml/g/s × 10^−6.

Q: What about the “Vp: Residual brain region blood volume” value (BBB [2]; Thalamus) of the same substance?
A: The value was 58.8 ± 2.6 µL/g.

Q: What about the “decrease in the PS values compared to PUT-Aβ” value (BBB [2]; different brain regions) of the same substance?
A: Its value is 19-40%.

Q: And the “fold increase in PS values compared to Aβ” value (BBB [2]; range over six brain regions)?
A: Its value is 1.5-2.0 fold.

Q: What about the “fold increase in Vp values compared to Aβ” value (BBB [2]; range over six brain regions) of the same substance?
A: Its value is 3.3-4.5 fold.
